From patent US6375927B1, “Methods of radiotherapy using biomodulators” (priority 1991, dated 2002)

System: B-16 melanoma cells
Experiment: Biodistribution: uptake of 99mTc-PWM versus 99mTc-HSA
Format: in vivo, Mice
Method: Mice were injected with B-16 melanoma cells 7 days prior to intravenous injection of ^99mTc-PWM or ^99mTc-HSA (human serum albumin). Biodistribution studies were performed 2 and 4 hours later. At 2 hours post injection, the absolute percent uptake into the tumor was 0.41% for Tc-PWM, and 0.36% for Tc-HSA. At four hours post injection, the absolute uptake decreased to 0.25% of the injected dose for both agents.

## Tc-HSA: 99mTc-labeled human serum albumin, non-specific imaging agent
B-16 melanoma mice
  Visualization of the tumor: not observed
mouse, in vivo, iv
  absolute uptake into the tumor, of the injected dose: 0.25%
